Our source for the IC50 values is patent publication US20260034123A1 (Cedilla Therapeutics, Inc., priority 2022, published 2026).

The target of experiment [1] is T1, CDK2/Cyclin E1 (Homo sapiens, UniProt P24941). As to the kind of experiment: Caliper LabChip EZ Reader mobility shift assay. The following applies: read-out: Caliper Assay (CDK2/CCNE1): IC50; 2.5 nM CDK2/Cyclin E1(14-475), 100 μM ATP, 30 min preincubation. As for the experimental part: Inhibition of CDK2/Cyclin E1 activity in the presence of compounds of the present disclosure was evaluated using a Caliper LabChip® EZ Reader mobility shift assay. In the assay, activated CDK2/Cyclin E1 catalyzes the phosphorylation of a fluorescently tagged peptide 5-FAM-QSPKKG-CONH2 (PerkinElmer, FL Peptide 18) which induces a difference in capillary electrophoresis mobility. The peptide substrate and product were measured, and the conversion ratio was used to determine the inhibition (as % activity and IC50 values) of CDK2/Cyclin E1. Reactions contained 50 mM HEPES pH 7.5, 10 mM MgCl2, 1 mM EDTA, 2 mM DTT, 0.01% Brij35, 0.5 mg/mL BSA, 0.1% DMSO, 2.5 nM CDK2/Cyclin E1(14-475), 100 μM ATP, and 1.5 μM fluorescent peptide substrate.
Dose titrations of inhibitors in 100% DMSO were combined with 3.25 nM CDK2/Cyclin E1(14-475) and 130 μM of ATP in reaction buffer. The mixtures were incubated for 30 minutes before the addition of fluorescent peptide substrate to initiate the kinase reaction. The final conditions were 2.5 nM CDK2/Cyclin E1(14-475), 100 μM ATP, and 1.5 μM fluorescent peptide. The reactions were stopped after 100 minutes with the addition of EDTA (6 mM final EDTA concentration). The stopped reactions were analyzed on a Caliper LabChip® EZ Reader 11. […]

A further experiment concerns Kuramochi cells RB-WT. Description: IncuCyte Kuramochi cell proliferation assay, RB-WT. The following applies: read-out: IncuCyte - Kuramochi RB-WT: IC50, 72 hours, cell count. As for the experimental part: (§1) IncuCyte® assay was used to measure the effect of disclosed compounds on cell proliferation. Fluorescent microscopy images of cells were taken immediately after compound treatment and 72 hours later. Image analysis software was used to obtain cell counts as a function of compound concentration. Kuramochi cells labeled with mApple-H2B were seeded on 384-well assay-ready plates. Plates were placed in an IncuCyte® (Sartorius) and scanned at 0 and 72 hours. IncuCyte® software was used to count the number of fluorescent nuclei in each well. The fold change in cell count from 0 to 72 hours in wells treated with increasing compounds concentrations (10 pts, 1/2 log dilution, 20 µM top concentration) was normalized to DMSO control wells. The normalized cell counts were fit with dose response curves and a GI50 was calculated.

Experiment [2] addresses T1, CDK2/Cyclin E1. Description: ADP-Glo Luminescent Kinase Assay (CDK2/E1-37C). To be noted: read-out: ADPGLO (CDK2/E1-37C): IC50; 0.18 nM CDK2/Cyclin E1, 100 μM ATP, Histone H1, 37° C. The procedure: Inhibition of CDK2/Cyclin E1 activity by the presence of small molecules was evaluated using ADP-Glo Luminescent Kinase Assay (Promega). Activated CDK2/Cyclin E1 was incubated with its substrate Histone H1 (SignalChem H10-54N) in the kinase reaction buffer (100 μM ATP, 50 mM HEPES pH 7.5, 10 mM MgCl2, 1 mM EDTA, 2 mM DTT, 0.01% Brij35, 0.5 mg/mL BSA). Luminescence was recorded with an Envision plate reader (PerkinElmer).
Dose titrations of inhibitors in 100% DMSO were combined with 0.36 nM CDK2/Cyclin E1 in reaction buffer. The mixtures were incubated for 60 minutes at 37° C. before the addition of ATP and Histone H1 substrate to initiate the kinase reaction. The final conditions were 0.18 nM CDK2/Cyclin E1, 100 μM ATP, and […] Histone H1. The reactions were incubated at 37° C. for 90 minutes before being stopped with the addition of ADP-Glo reagent. This mixture was incubated at room temperature for 60 minutes before Kinase Detection Solution is added to generate luminescence. The stopped reactions were analyzed on an Envision plate reader. The conversion ratios were normalized to yield % activity, plotted against compound concentration, and fit to a four-parameter equation to determine the IC50 for each compound.
(ADP-Glo turns the ADP formed in a reaction into a luminescent signal.)

The subject of a further experiment is Kuramochi cells RB-KO. As to the kind of experiment: IncuCyte Kuramochi cell proliferation assay, RB-KO. The following applies: read-out: IncuCyte Kuramochi RB-KO: IC50 - Batch Mean, 72 hours, cell count. As for the experimental part:
as §1

Where only a bound is given, the exact number is not on record here.

Consider `CC1(C)C[C@@H]1C(=O)N1CC2(CN(C(=O)c3cncs3)CC2CNCc2cccc(C3CCOCC3)n2)C1` (some centres unmarked), for which the IC50 on CDK2/Cyclin E1 [1] and in the experiment on Kuramochi cells RB-WT was more than 10 µM each time.
Consider `CC(C)(C(=O)N1CC2(CN(C(=O)c3cnn(Cc4ccc(F)cc4)c3)C[C@H]2COCc2cccc(C3CCC(F)(F)CC3)c2C(=O)O)C1)C(F)(F)F` [Compound I-101, (S)-2-(4,4-difluorocyclohexyl)-6-(((6-(1-(4-fluorobenzyl)-1H-pyrazole-4-carbonyl)-2-(3,3,3-trifluoro-2,2-dimethylpropanoyl)-2,6-diazaspiro[3.4]octan-8-yl)methoxy)methyl)benzoic acid], for which the IC50 on CDK2/Cyclin E1 [2] was less than 0.5 µM; with Kuramochi cells RB-WT, more than 10 µM; with Kuramochi cells RB-KO, more than 10 µM.
